Data set [1] addresses T1, 1-deoxy-D-xylulose-5-phosphate synthase (DXPS) (Deinococcus radiodurans, UniProt Q9RUB5).
T1 construct: gene dxs
In words: biochemical.

Data set [2] deals with T1, 1-deoxy-D-xylulose-5-phosphate synthase (DXPS). In words: biochemical. The source holds these as a separate data set.
Substrate in data set [3]: O=CC(O)COP(=O)(O)O
In words: purified protein. The following applies: thiamine pyrophosphate (TPP) and divalent metal (Mg(II); MnCl2 in assay) pocket composed of amino acids from domains I and II; Arg-423 hydrogen bonds to the phosphate of GAP.

Substrate in data set [4]: CC(=O)C(=O)O
In words: purified protein. The note with it: thiamine pyrophosphate (TPP) and divalent metal (Mg(II); MnCl2 in assay) His-304, near the thiazolium C2 atom, likely contributes to pyruvate binding.

Read-outs that look alike come from different tables or passages of the source.

As a reminder, the Ki is the dissociation constant of the complex between target and ligand, obtained from inhibition or displacement. Read a high Ki as weaker binding. Broadly, the Km is the substrate concentration at which the rate is half of its maximum. A word on the kcat: it is the number of substrate molecules converted per active site and unit of time at saturation. As usually defined, the kcat/Km is the turnover number divided by the Michaelis constant.

`CC(=O)[C@@H](O)[C@H](O)COP(=O)(O)O` [DXP, 1-deoxy-D-xylulose-5-phosphate] displayed an inhibition constant Ki in data set [1] of 130 ± 32 µM.
For `O=C(O)C(=O)CF` [F-Pyr, β-fluoropyruvate], the Ki in data set [2] worked out at 3.3 ± 0.4 µM.

B1: 1-deoxy-D-xylulose-5-phosphate synthase (DXPS) (Deinococcus radiodurans R1 = ATCC 13939 = DSM 20539) (protein)
chain: MNELPGTSDTPLLDQIHGPKDLKRLSREQLPALTEELRGEIVRVCSRGGLHLASSLGAVDIITALHYVLDSPRDRILFDVGHQAYAHKILTGRRDQMADIKKEGGISGFTKVSESEHDAITVGHASTSLANALGMALARDAQGKDFHVAAVIGDGSLTGGMALAALNTIGDMGRKMLIVLNDNEMSISENVGAMNKFMRGLQVQKWFQEGEGAGKKAVEAVSKPLADFMSRAKNSTRHFFDPASVNPFAAMGVRYVGPVDGHNVQELVWLLERLVDLDGPTILHIVTTKGKGLSYAEADPIYWHGPAKFDPATGEYVPSSAYSWSAAFGEAVTEWAKTDPRTFVVTPAMREGSGLVEFSRVHPHRYLDVGIAEEVAVTTAAGMALQGMRPVVAIYSTFLQRAYDQVLHDVAIEHLNVTFCIDRAGIVGADGATHNGVFDLSFLRSIPGVRIGLPKDAAELRGMLKYAQTHDGPFAIRYPRGNTAQVPAGTWPDLKWGEWERLKGGDDVVILAGGKALDYALKAAEDLPGVGVVNARFVKPLDEEMLREVGGRARALITVEDNTVVGGFGGAVLEALNSMNLHPTVRVLGIPDEFQEHATAESVHARAGIDAPAIRTVLAELGVDVPIEV
On to B1, for which, in the data set “purified protein [3]”, the Km was determined as 50 ± 10 µM, the kcat was determined as 7.9 s⁻¹ and the kcat/Km was found to be 150000 M⁻¹ s⁻¹. In addition, in “purified protein [4]”, the Km is 280 ± 30 µM, the catalytic constant (kcat) turned out to be 7.4 s⁻¹ and the kcat/Km was found to be 26000 M⁻¹ s⁻¹.

The values above are taken from publication PMC5851014, “Mechanistic Studies of 1-Deoxy-D-Xylulose-5-Phosphate Synthase from Deinococcus radiodurans” (Biochemistry & molecular biology journal, 2018).
